Measured values published in patent US20100092398A1, “ANTIMICROBIAL COMPOSITIONS AND APPLICATIONS THEREFORE” (priority 2004, published 2010).

Assays:
Test in all cases: Minimal effective bactericidal concentration, agar dilution technique
Settings in all cases: 10% water solubilised solutions, Vitamin E emulsifier; 10^5 to 10^6 bacteria/ml
P. aeruginosa = system: P. aeruginosa
S. aureus = system: S. aureus
Listeria = system: Listeria
Salmonella = system: Salmonella
E. coli = system: E. coli

## CC1=CCC(O)(C(C)C)CC1 (centres unmarked) [terpinen-4-ol]
P. aeruginosa
  minimal effective bacterial concentration (killed 99.99% of the bacteria): No level (>500 ppm)
S. aureus
  minimal effective bacterial concentration (killed 99.99% of the bacteria): 250 ppm
Listeria
  minimal effective bacterial concentration (killed 99.99% of the bacteria): No level (>500 ppm)
Salmonella
  minimal effective bacterial concentration (killed 99.99% of the bacteria): No level (>500 ppm)
E. coli
  minimal effective bacterial concentration (killed 99.99% of the bacteria): No level (>500 ppm)
